# Earlier results, collected in PubChem BioAssay AID977610 (Shanghai Institute of Organic Chemistry, 2014).
# Legend:
# Test in all cases: PubChem AID 977610
# [1] = biological target: E.Coli (lacZ) beta-galactosidase (R599A); settings: PDB protein-ligand complexes, literature Ki, protein: E.Coli (lacZ) beta-galactosidase (R599A)
# [2] = biological target: dihydrodipicolinate synthase; settings: PDB protein-ligand complexes, literature Ki; protein: dihydrodipicolinate synthase; PDB entry 1YXD
# [3] = biological target: Acetylcholine-binding protein nAChR; settings: PDB protein-ligand complexes, literature Ki; protein: Acetylcholine-binding protein nAChR; PDB entry 4nzb
# [4] = biological target: ribonuclease a; settings: PDB protein-ligand complexes, literature Ki; protein: ribonuclease a; PDB entry 1W4P
# [5] = biological target: hypothetical protein ydce; settings: PDB protein-ligand complexes, literature Ki; protein: hypothetical protein ydce; PDB entry 1GYX
# [6] = biological target: Factor VIIa; settings: PDB protein-ligand complexes, literature Ki; protein: Factor VIIa; PDB entry 4ng9
# [7] = biological target: HIV-1 Protease; settings: PDB protein-ligand complexes, literature Ki; protein: HIV-1 Protease; PDB entry 3QAA
# [8] = biological target: CAMP-DEPENDENT PROTEIN KINASE; settings: PDB protein-ligand complexes, literature Ki, protein: CAMP-DEPENDENT PROTEIN KINASE
# [9] = biological target: aiia-like protein; settings: PDB protein-ligand complexes, literature Ki; protein: aiia-like protein; PDB entry 2BR6
# [10] = biological target: 1ZXV A; settings: PDB protein-ligand complexes, literature Ki; PDB entry 1ZXV
# [11] = biological target: 3-phosphoinositide dependent protein kinase-1; settings: PDB protein-ligand complexes, literature Ki; protein: 3-phosphoinositide dependent protein kinase-1; PDB entry 1W1D
# [12] = biological target: beta-lactamase; settings: PDB protein-ligand complexes, literature Ki; protein: beta-lactamase; PDB entry 1MXO
# [13] = biological target: Glycogen phosphorylase; settings: PDB protein-ligand complexes, literature Ki; protein: Glycogen phosphorylase; PDB entry 3G2N
# [14] = biological target: 3-DEHYDROQUINATE DEHYDRATASE; settings: PDB protein-ligand complexes, literature Ki; protein: 3-DEHYDROQUINATE DEHYDRATASE; PDB entry 2XD9
# [15] = biological target: glutamate receptor 2; settings: PDB protein-ligand complexes, literature Ki; protein: glutamate receptor 2; PDB entry 2CMO
# [16] = biological target: 1PWP A; settings: PDB protein-ligand complexes, literature Ki; PDB entry 1PWP
# [17] = biological target: coagulation factor x; settings: PDB protein-ligand complexes, literature Ki; protein: coagulation factor x; PDB entry 2BQW
# [18] = biological target: human tryoptophan hydroxylase type 1; settings: PDB protein-ligand complexes, literature Ki; protein: human tryoptophan hydroxylase type 1; PDB entry 3HF8
# [19] = biological target: FK506 binding protein; settings: PDB protein-ligand complexes, literature Ki, protein: FK506 binding protein
# [20] = biological target: stalked-cell differentiation controlling protei; settings: PDB protein-ligand complexes, literature Ki; protein: stalked-cell differentiation controlling protei; PDB entry 1W25
# [21] = biological target: Cellobiose Phosphorylase(CBP); settings: PDB protein-ligand complexes, literature Ki; protein: Cellobiose Phosphorylase(CBP); PDB entry 3QFY
# [22] = biological target: coagulation factor xa; settings: PDB protein-ligand complexes, literature Ki; protein: coagulation factor xa; PDB entry 2BOH
# [23] = biological target: cell division protein kinase 2; settings: PDB protein-ligand complexes, literature Ki; protein: cell division protein kinase 2; PDB entry 2CLX
# [24] = biological target: Glycogen synthase kinase-3 beta; settings: PDB protein-ligand complexes, literature Ki; protein: Glycogen synthase kinase-3 beta; PDB entry 4iq6
# [25] = biological target: acetylcholinesterase; settings: PDB protein-ligand complexes, literature Ki; protein: acetylcholinesterase; PDB entry 1H23
# [26] = biological target: chitinase b; settings: PDB protein-ligand complexes, literature Ki; protein: chitinase b; PDB entry 1O6I
# [27] = biological target: human Leukotriene A-4 hydrolase (LTA4H); settings: PDB protein-ligand complexes, literature Ki; protein: human Leukotriene A-4 hydrolase (LTA4H); PDB entry 3b7u
# [28] = biological target: Peptide deformylase 1B (PDF1B); settings: PDB protein-ligand complexes, literature Ki; protein: Peptide deformylase 1B (PDF1B); PDB entry 3O3J
# [29] = biological target: ribonuclease A (RNase A); settings: PDB protein-ligand complexes, literature Ki, protein: ribonuclease A (RNase A)
# [30] = biological target: thymidylate kinase; settings: PDB protein-ligand complexes, literature Ki; protein: thymidylate kinase; PDB entry 1W2G
# [31] = biological target: Soluble acetylcholine receptor (Mutant II); settings: PDB protein-ligand complexes, literature Ki; protein: Soluble acetylcholine receptor (Mutant II); PDB entry 3SIO
# [32] = biological target: Soluble acetylcholine receptor (Mutant III); settings: PDB protein-ligand complexes, literature Ki; protein: Soluble acetylcholine receptor (Mutant III); PDB entry 3SH1
structure (smiles),measurement,setting,value
CC(C)S[C@@H]1O[C@H](CO)[C@H](O)[C@H](O)[C@H]1O,Ki,[1]; PDB entry 3MUZ,350 µM
NCCCC[C@H](N)C(=O)O,Ki,[2],5 µM
N#Cc1cccc(-c2nc(-c3cccnc3)no2)c1,Ki,[3],67 µM
O=c1ccn([C@H]2C[C@H](OP(=O)(O)O)[C@@H](CO)O2)c(=O)[nH]1,Ki,[4],18 µM
O=C(O)c1ccccc1,Ki,[5],3300 µM
CCOc1cc([C@@H](Nc2ccc3c(N)nccc3c2)C(=O)NCc2cccc(S(N)(=O)=O)c2)ccc1OC(C)C,Ki,[6],0.075 µM
COc1ccc(S(=O)(=O)N(CC(C)C)C[C@@H](O)[C@H](Cc2ccccc2)NC(=O)O[C@H]2CO[C@H]3OC[C@H](OC)[C@H]32)cc1,Ki,[7],2.9 pM
Cc1[nH]nc2ccc(-c3cncc(OC[C@@H](N)Cc4c[nH]c5ccccc45)c3)cc12,Ki,[8]; PDB entry 2JDS,0.0063 µM
same,Ki,[8]; PDB entry 2JDV,0.0063 µM
N[C@H]1CCOC1=O,Ki,[9],1100 µM
O=C(O)CCN1C(=O)/C(=C\c2ccc(-c3ccc(Cl)cc3)o2)SC1=S,Ki,[10],0.8 µM
O=P(O)(O)OC1[C@H](O)[C@H](OP(=O)(O)O)C(OP(=O)(O)O)[C@H](OP(=O)(O)O)[C@H]1O (some centres not stated),Ki,[11],0.3 µM
O=C(Cc1cccs1)N[C@H]([Al])c1cccc(C(=O)O)c1,Ki,[12],0.001 µM
O=C(N[C@@H]1O[C@H](CO)[C@@H](O)[C@H](O)[C@H]1O)c1ccccc1,Ki,[13],81 µM
C/C=C/c1cc2c(s1)[C@@H](O)[C@H](O)C[C@]2(O)C(=O)O,Ki,[14],0.35 µM
CN1CCc2c(-c3ccc(S(=O)(=O)N(C)C)cc3)cc3c(c2C1)NC(=O)/C3=N/O[C@@H](CCO)C(=O)O,Ki,[15],0.394 µM
O=C1O[C@H](CO)[C@H](O)[C@H](O)[C@H]1O,Ki,[1]; PDB entry 3MV0,140 µM
Cc1cc(N)c2cc(NC(=O)Nc3ccc4nc(C)cc(N)c4c3)ccc2n1,Ki,[16],0.5 µM
CC(C)N1CCC(NC(=O)c2cc3ccccc3n2CC(=O)Nc2ccc(Cl)cc2)CC1,Ki,[17],0.003 µM
Nc1nc(O[C@H](c2ccc(-c3cccc(F)c3)cc2)C(F)(F)F)cc(-c2ccc(C[C@H](N)C(=O)O)cc2)n1,Ki,[18],0.31 µM
CCC(C)(C)C(=O)C(=O)N1CCCC[C@H]1C(=O)O[C@H](CCc1ccccc1)c1ccccc1,Ki,[19]; PDB entry 1FKG,0.01 µM
Nc1nc2c(ncn2[C@@H]2O[C@H](COP(=O)(O)O)[C@@H](O)[C@H]2O)c(=O)[nH]1,Ki,[20],0.5 µM
OC[C@H]1CNC[C@@H](O)[C@@H]1O,Ki,[21],0.75 µM
CC(C)N1CCC(NC(=O)c2cc3ccccc3n2Cc2cc(-c3ccc(Cl)s3)on2)CC1,Ki,[22],0.003 µM
Nc1n[nH]c(N)c1N=Nc1ccc(O)cc1,Ki,[23],13.3 µM
Clc1cc(-c2c[nH]c3ncccc23)cc(NC2CCCCC2)n1,Ki,[24],0.058 µM
O=c1ccc2c([nH]1)CCC[C@@H]2NCCCCCCCCCCCCN[C@H]1CCCc2[nH]c(=O)ccc21,Ki,[25],0.0045 µM
O=C[C@H]1CCCN1,Ki,[26],650 µM
CC1(C)COC(=O)CCCCCCCCCCCOC(=O)[C@@H]2CCCCN2C(=O)C1=O,Ki,[19]; PDB entry 1FKI,0.1 µM
C[C@H](NC(=O)[C@@H](CC(=O)NO)Cc1ccccc1)C(=O)O,Ki,[27],0.018 µM
O=C(Cc1c[nH]c2ccc(Br)cc12)NO,Ki,[28],0.4 µM
O=c1ccn([C@@H]2O[C@H](COP(=O)(O)OP(=O)(O)O)[C@@H](O)[C@H]2O)c(=O)[nH]1,Ki,[29]; PDB entry 3DXH,650 µM
Cc1cn([C@H]2C[C@H](O)[C@@H](CO)O2)c(=O)[nH]c1=O,Ki,[30],27 µM
CCN1C[C@]2(COC(=O)c3ccccc3N3C(=O)C[C@H](C)C3=O)CC[C@H](OC)[C@@]34[C@@H]5C[C@H]6[C@H](OC)[C@@H]5[C@](O)(C[C@@H]6OC)[C@@](O)([C@@H](OC)[C@H]23)[C@@H]14,Ki,[31],0.01 µM
same,Ki,[32],0.041 µM
O=c1ccn([C@@H]2O[C@H](COP(=O)(O)O)[C@@H](O)[C@H]2O)c(=O)[nH]1,Ki,[29]; PDB entry 3DXG,4000 µM
CO[C@H]1C[C@@H]2CC[C@@H](C)[C@@](O)(O2)C(=O)C(=O)N2CCCC[C@H]2C(=O)O[C@H]([C@H](C)C[C@@H]2CC[C@@H](O)[C@H](OC)C2)CC(=O)[C@H](C)/C=C(\C)[C@@H](O)[C@@H](OC)C(=O)[C@H](C)C[C@H](C)/C=C/C=C/C=C/1C,Ki,[19]; PDB entry 1PBK,0.0009 µM
